# Source: PubChem BioAssay (Tox21)
# Sequences of proteins named here, by UniProt entry; tags and fusion partners are left off.
# UniProt P10635, whole entry, looked up: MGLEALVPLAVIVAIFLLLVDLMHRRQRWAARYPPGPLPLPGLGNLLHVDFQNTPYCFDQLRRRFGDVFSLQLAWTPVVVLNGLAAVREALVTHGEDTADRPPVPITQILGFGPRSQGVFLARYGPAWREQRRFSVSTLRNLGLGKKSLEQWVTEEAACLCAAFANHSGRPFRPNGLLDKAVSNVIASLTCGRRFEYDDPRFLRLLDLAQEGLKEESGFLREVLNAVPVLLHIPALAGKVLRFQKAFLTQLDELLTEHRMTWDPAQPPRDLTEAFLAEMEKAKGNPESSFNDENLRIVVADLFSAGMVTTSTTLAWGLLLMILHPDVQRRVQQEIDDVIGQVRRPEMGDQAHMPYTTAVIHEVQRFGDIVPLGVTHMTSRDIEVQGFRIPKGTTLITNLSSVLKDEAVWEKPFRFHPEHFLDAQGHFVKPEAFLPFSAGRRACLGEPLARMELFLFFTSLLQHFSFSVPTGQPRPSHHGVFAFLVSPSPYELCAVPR
# UniProt P33261, whole entry, looked up: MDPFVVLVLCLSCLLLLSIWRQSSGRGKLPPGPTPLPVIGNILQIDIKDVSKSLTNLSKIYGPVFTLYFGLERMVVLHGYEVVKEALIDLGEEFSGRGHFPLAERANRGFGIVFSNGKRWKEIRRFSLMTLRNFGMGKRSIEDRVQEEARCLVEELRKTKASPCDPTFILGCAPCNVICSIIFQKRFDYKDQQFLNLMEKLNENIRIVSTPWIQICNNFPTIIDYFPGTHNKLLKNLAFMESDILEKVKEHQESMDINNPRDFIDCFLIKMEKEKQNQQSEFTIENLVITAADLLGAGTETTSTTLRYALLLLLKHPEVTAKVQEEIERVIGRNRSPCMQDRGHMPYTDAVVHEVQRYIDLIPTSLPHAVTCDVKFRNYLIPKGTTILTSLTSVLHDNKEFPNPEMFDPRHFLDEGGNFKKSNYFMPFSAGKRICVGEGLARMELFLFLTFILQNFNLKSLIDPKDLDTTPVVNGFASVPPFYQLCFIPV
# UniProt P11712, whole entry, looked up: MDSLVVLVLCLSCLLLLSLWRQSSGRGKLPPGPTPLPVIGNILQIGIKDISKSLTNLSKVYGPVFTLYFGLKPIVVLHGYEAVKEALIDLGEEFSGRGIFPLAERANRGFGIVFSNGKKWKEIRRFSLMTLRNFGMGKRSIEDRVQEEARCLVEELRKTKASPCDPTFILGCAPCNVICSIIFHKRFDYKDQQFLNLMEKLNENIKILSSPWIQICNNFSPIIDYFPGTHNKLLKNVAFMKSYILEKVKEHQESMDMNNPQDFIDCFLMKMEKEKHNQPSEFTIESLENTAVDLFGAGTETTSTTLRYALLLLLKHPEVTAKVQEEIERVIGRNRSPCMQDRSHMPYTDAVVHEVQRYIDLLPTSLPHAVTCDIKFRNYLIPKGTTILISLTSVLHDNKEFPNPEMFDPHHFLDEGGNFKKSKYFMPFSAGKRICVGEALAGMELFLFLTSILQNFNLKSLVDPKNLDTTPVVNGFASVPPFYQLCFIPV
# UniProt P05177, whole entry, looked up: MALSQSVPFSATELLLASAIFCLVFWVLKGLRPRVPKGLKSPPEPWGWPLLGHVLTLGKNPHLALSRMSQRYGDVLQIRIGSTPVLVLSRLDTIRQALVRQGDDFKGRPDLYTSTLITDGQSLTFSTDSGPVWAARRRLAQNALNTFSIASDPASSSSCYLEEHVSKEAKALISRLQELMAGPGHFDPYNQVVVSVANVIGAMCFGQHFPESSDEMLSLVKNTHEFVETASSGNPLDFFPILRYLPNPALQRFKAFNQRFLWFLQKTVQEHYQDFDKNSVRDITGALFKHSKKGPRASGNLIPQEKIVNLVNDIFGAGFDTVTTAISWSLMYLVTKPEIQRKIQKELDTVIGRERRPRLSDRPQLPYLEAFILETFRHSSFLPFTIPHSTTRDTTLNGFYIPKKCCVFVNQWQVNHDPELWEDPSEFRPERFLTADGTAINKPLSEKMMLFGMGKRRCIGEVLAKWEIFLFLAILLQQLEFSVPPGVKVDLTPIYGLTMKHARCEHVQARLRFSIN
# Where “and” joins values, the source holds several entries; their conditions need not be identical. Identical values can stand only once. For some of these results: Most of the hits are listed elsewhere, so they are rarer here than in the full data. Inconclusive results are not listed. The entries are a selection whose mix differs from that of the whole data set. The source holds several records for some structures; these can differ, active in one and inactive in another. Calls of active or inactive are those of the source. Calls follow the shape of the dose curve; as a rule, active = well fitted curve in the direction sought with a large enough effect in the repeat runs; inconclusive = weak or mixed curves; inactive = no such curve, though single readings can be large; an effect the other way counts as inactive or inconclusive.
# Tested on: not listed separately
# Assay: qHTS assay to identify small molecule antagonists of the retinoic acid receptor (RAR) signaling pathway (AID 1159552; also: % is scaled to controls: 0 for no effect and ±100 for the full control effect; nearly all actives have a fitted effect of over 50% in size)
# Conditions: C3RL4 RARE luciferase reporter, retinol-stimulated, 6 h; at 92.4 µM (top of the series) unless noted
# In short: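 C3RL4 RARE-luc cells, overnight plating; retinol 1 uM final added right after compound; 6 hr 37 C; luciferase read at 30 min RT.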
row,Compound,"activity, negative = inhibition"
1,CN1CCc2cccc3c2[C@H]1Cc1ccc(O)c(O)c1-3,inactive: 38.8% [at 42.5 µM]
2,CC1(C)[C@@H](O[C@H]2O[C@H](C(=O)O)[C@@H](O)[C@H](O)[C@H]2O[C@@H]2O[C@H](C(=O)O)[C@@H](O)[C@H](O)[C@H]2O)CC[C@]2(C)[C@H]3C(=O)C=C4[C@@H]5C[C@@](C)(C(=O)O)CC[C@]5(C)CC[C@@]4(C)[C@]3(C)CC[C@@H]12,inactive: 5.66% [at 42.5 µM]
3,O=c1c(O)c(-c2ccc(O)c(O)c2)oc2cc(O)cc(O)c12,inactive: 180% and inactive: -9.22%
4,CNC[C@H](O)c1ccc(O)c(O)c1,inactive: 0.13% [at 19 µM]

# Target: Cytochrome P450 2D6 (Homo sapiens) (UniProt P10635)
# Assay: Cytochrome P450 Family 2 Subfamily D Member 6 (CYP2D6) small molecule antagonists: luciferase reporter qHTS assay (AID 1671196); also: potency is read from the fitted curve at half-maximal effect; nearly all actives have a fitted effect of over 50% in size
# Conditions: P450-Glo CYP2D6 enzyme assay, luciferin luminescence, 1 h
# In short: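 Luminescence (RLU), read 20 min after detection reagent, indicated CYP2D6 conversion of proluciferin to luciferin during a 1 h NADPH-dependent reaction at room temperature.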
row,Compound,Potency
1,CN(C)c1ccc2nc3ccc(=[N+](C)C)cc-3sc2c1,active: 15.3 µM and active: 11.2 µM and active: 11 µM
2,COc1cc(N)c(Cl)cc1C(=O)NC1CCN(CCCOc2ccc(F)cc2)CC1OC (configuration not stated),active: 0.275 µM
3,COc1cc(NC(C)CCCN)c2ncccc2c1 (configuration not stated),active: 8.71 µM
4,CC(C)Cn1cnc2c(N)nc3ccccc3c21,active: 6.01 µM

# Target: Cytochrome P450 2C19 (Homo sapiens) (UniProt P33261)
# Assay: Cytochrome P450 Family 2 Subfamily C Member 19 (CYP2C19) small molecule antagonists: luciferase reporter qHTS assay (AID 1671197); also: potency is read from the fitted curve at half-maximal effect; nearly all actives have a fitted effect of over 65% in size
# Conditions: P450-Glo CYP2C19 enzyme, luciferin luminescence, 1 h
# Description: National Center for Advancing Translational Sciences [NCATS]
# U.S. Environmental Protection Agency [EPA]
# National Institutes of Environmental Health Sciences [NIEHS]
# National Toxicology Program [NTP]
# U.S. Food and Drug Administration [FDA]
# Cytochrome P450 (CYP) enzymes are membrane-bound hemeproteins that play a key role in metabolism of drugs and xenobiotics. Evaluation of the effect of chemicals on CYP isozymes is useful to minimize the adverse drug reactions and toxicities in drug development process. Tox21 chemicals were tested for their effect on CYP enzyme activities by using P450-Glo (TM) screening systems (Promega Corporation, Madison, WI). These systems provide a luminescent method containing proluciferin substrates and are converted to luciferin products by CYP isozymes. The luciferin products formed are detected with a luciferin detection reagent, and the amount of light produced is proportional to CYP activity. P450-Glo (TM) CYP2C19 screening system (Catalog. No. V9880) was used to detect the compounds that interfere in CYP2C19 activity. The positive control compound used for CYP2C19 assay is ketoconazole (Sigma-Aldrich, St. Louis, MO).
# Tox21 Assay Protocol Summary:
# Two ul of enzyme-substrate mix was dispensed into medium binding white/solid 1536-well plates (Greiner Bio-One North America Inc., Monroe, NC) using a BioRaptr Flying Reagent Dispenser (FRD, Beckman Coulter, Brea, CA). Compounds dissolved in DMSO and positive control (ketoconazole) were transferred to the assay plates at 23 nl using a Pintool station (Wako, San Diego, CA). The assay plates were incubated at room temperature for 10 min. Then 2 ul of NADPH regeneration solution was added to each well of the assay plates using an FRD and incubated at 37C for 1 h. The reaction was stopped by adding 4 ul of detection reagent using an FRD and after 20 min incubation at room temperature the luminescence signal was measured using a ViewLux plate reader (Perkin Elmer, Shelton, CT). Data were expressed as relative luminescence units.
row,Compound,Potency
1,O=C(/C=C/C=C/c1ccc2c(c1)OCO2)N1CCCCC1,active: 40 µM and active: 35.6 µM
2,CN(C)c1ccc2nc3ccc(=[N+](C)C)cc-3sc2c1,active: 242 nM and active: 224 nM and active: 219 nM
3,CCc1nc(N)nc(N)c1-c1ccc(Cl)cc1,active: 40.5 µM and active: 39.9 µM
4,O=C(O)c1cccc(C(=O)O)n1,active: 79.6 µM
5,Cc1c(C)c2c(c(C)c1O)CCC(C)(COc1ccc(CC3SC(=O)NC3=O)cc1)O2 (configuration not stated),active: 79.6 µM
6,COc1cc(NC(C)CCCN)c2ncccc2c1 (configuration not stated),active: 12.3 µM

# Target: Cytochrome P450 2C9 (Homo sapiens) (UniProt P11712)
# Assay: Cytochrome P450 Family 2 Subfamily C Member 9 (CYP2C9) small molecule antagonists: luciferase reporter qHTS assay (AID 1671198); also: potency is read from the fitted curve at half-maximal effect; nearly all actives have a fitted effect of over 50% in size
# Conditions: P450-Glo CYP2C9 enzyme assay, luciferin luminescence
# In short: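 P450-Glo proluciferin substrate with CYP2C9 enzyme; 10 min RT preincubation, then NADPH regeneration 1 h at 37C; luciferin detection reagent 20 min RT, luminescence in relative luminescence units.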
row,Compound,Potency
1,OC(Cn1cncn1)(Cn1cncn1)c1ccc(F)cc1F,active: 25.4 µM and active: 35.6 µM and active: 13.8 µM
2,CN(C)c1ccc2nc3ccc(=[N+](C)C)cc-3sc2c1,active: 5.42 µM and active: 7.96 µM and active: 9.77 µM
3,O=c1c(O)c(-c2ccc(O)c(O)c2)oc2cc(O)cc(O)c12,active: 28.5 µM [middle of 4 runs]
4,COc1cc(NC(C)CCCN)c2ncccc2c1 (configuration not stated),active: 30.9 µM
5,C#C[C@]1(O)CC[C@H]2[C@@H]3CCC4=Cc5oncc5C[C@]4(C)[C@H]3CC[C@@]21C,active: 2.24 µM and active: 2.45 µM

# Target: Cytochrome P450 1A2 (Homo sapiens) (UniProt P05177)
# Assay: Cytochrome P450 Family 1 Subfamily A Member 2 (CYP1A2) small molecule antagonists: luciferase reporter qHTS assay (AID 1671199); also: potency is read from the fitted curve at half-maximal effect; nearly all actives have a fitted effect of over 50% in size
# Conditions: P450-Glo CYP1A2 enzyme, luciferin luminescence, 1 h
# In short: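 CYP1A2 turnover of a luminogenic substrate was quantified after 1 h with NADPH regeneration at room temperature. Furafylline served as positive control.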
row,Compound,Potency
1,CN(C)c1ccc2nc3ccc(=[N+](C)C)cc-3sc2c1,active: 1.53 µM and active: 2.52 µM and active: 1.82 µM
2,COc1cc(NC(C)CCCN)c2ncccc2c1 (configuration not stated),active: 436 nM
3,CC(C)Cn1cnc2c(N)nc3ccccc3c21,active: 5600 nM
